Source: PMC3519363

Molecular target: myristoylated neurocalcin δ (UniProt P61602)
Assay: FPLC

A stoichiometry N of 2 was found for “myristoylated neurocalcin δ (from UniProt P61602 1-193) (natural protein)” in this work.
